# Earlier results as cited in US8574837B2, “System for screening agonists/antagonists of cellular signaling pathways” (President and Fellows of Harvard College, priority 2008, dated 2013).
# What was measured:
# [1] = test system: mouse medulloblastoma cells; details: mouse allograft models; cited from earlier work
# SmoA1 = details: cited from earlier work
# [2] = test system: mouse medulloblastoma cells; details: in culture; cited from earlier work
smiles,measurement,setting,value
CC1=C2C[C@H]3[C@@H](CC=C4C[C@@H](O)CC[C@@]43C)[C@@H]2CC[C@]12O[C@@H]1C[C@H](C)CN[C@H]1[C@H]2C [cyclopamine],Rate of growth of mouse medulloblastoma cells,[1],decrease the rate of growth
same,"Inhibition of SmoA1 activity, dose relative to wild-type Smo",SmoA1,has to be applied at a much higher dose to block SmoA1 activity
same,Rate of growth of mouse medulloblastoma cells,[2],decrease the rate of growth

# Like-named read-outs stand apart in the source and are kept apart here.
